Among the data in US12617784B2, “AKT inhibitor” (Nanjing Chia Tai Tianqing Pharmaceutical Co., Ltd., priority 2019, dated 2026) are IC50 values, retold here.

Chains of the proteins cited; added tags and fusions are not shown. Lines headed by an entry give the natural chain unless they say otherwise; changes in a name come on top.
UniProt P31751: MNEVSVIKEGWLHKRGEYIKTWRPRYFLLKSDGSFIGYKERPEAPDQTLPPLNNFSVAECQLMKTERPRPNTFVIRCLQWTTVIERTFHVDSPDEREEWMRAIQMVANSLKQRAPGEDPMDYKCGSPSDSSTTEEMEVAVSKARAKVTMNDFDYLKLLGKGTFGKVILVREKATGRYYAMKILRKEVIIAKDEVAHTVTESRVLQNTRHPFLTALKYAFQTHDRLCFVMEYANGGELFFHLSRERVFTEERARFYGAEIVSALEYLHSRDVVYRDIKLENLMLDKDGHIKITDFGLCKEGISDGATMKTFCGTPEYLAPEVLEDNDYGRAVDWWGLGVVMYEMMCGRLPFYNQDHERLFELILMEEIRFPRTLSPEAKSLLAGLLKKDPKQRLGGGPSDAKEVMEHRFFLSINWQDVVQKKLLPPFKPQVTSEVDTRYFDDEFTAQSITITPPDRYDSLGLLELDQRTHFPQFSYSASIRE

A word on the IC50: it is the concentration that inhibits the measured activity by half.

The test deals with T1, AKT2 (Homo sapiens, UniProt P31751).
T1 construct: purchased Carna 01-102
Briefly: In vitro enzyme activity test (HTRF kinEASE TK), AKT2. Format: biochemical. The following applies: ATP 20 μM, enzyme 0.1 ng/well, reaction 50 min. As to the method: Experimental Procedure 2.1 Preparation of Reagents
1 mL 1× Kinase Reaction Buffer of Kinase AKT1, AKT2 and AKT3 contain 200 μL 5× Kinase Reaction Buffer, 5 μL 1 M MgCl2, 1 μL 1 M DTT and 794 μL ultrapure water.
In addition to the control wells, 4 μL of the diluted compound working solutions were added to all reaction wells.
b) 2 μL of the previously prepared TK-biotin substrate solution was added to all reaction wells.
c) 2 μL of the previously prepared enzyme solution was added to all reaction wells, except the negative wells. The volume of the negative well was filled with 2 μL of enzyme corresponding to 1× kinase reaction buffer. The plate was sealed with sealing film. After mixing, the plate was incubated at room temperature for 10 min to allow the compound and enzyme to fully combined.
d) 2 μL of ATP solution was added to all reaction wells to start the kinase reaction.
e) The test solution was prepared 5 min before the end of the kinase reaction.
f) After the kinase reaction was completed, 5 μL of diluted streptavidin-XL665 were added to all reaction wells, and immediately the diluted europium-labeled tyrosine kinase substrate antibody detection solution was added after mixing.
g) The plate was sealed and mixed well. […] The inhibition rate of each well was calculated through the fully active wells and the background signal wells, taking the average value in case of multiple wells. […]

`C[C@@H]1CC(=O)Nc2ncnc(N3CCN(C(=O)[C@H](CNC4CC4)c4ccc(Cl)cc4)[C@H]4C[C@H]43)c21` (single isomer, unassigned) [Example 37 Isomer 1] registered an IC50 of at least 1000 nM.
